The values that follow come from patent publication US20140120543A1 (INSTITUTE GUSTAVE ROUSSY, published 2014).

The target in this experiment is T1, ERCC1-202 isoform (isoform 202 of the ERCC1 protein) (human, UniProt P07992 1-297).
T1 construct: Re-expressed in ERCC1-deficient A549 clone 216; Detected inside fixed, permeabilised cells by PLA, not on the cell surface
T1 sequence: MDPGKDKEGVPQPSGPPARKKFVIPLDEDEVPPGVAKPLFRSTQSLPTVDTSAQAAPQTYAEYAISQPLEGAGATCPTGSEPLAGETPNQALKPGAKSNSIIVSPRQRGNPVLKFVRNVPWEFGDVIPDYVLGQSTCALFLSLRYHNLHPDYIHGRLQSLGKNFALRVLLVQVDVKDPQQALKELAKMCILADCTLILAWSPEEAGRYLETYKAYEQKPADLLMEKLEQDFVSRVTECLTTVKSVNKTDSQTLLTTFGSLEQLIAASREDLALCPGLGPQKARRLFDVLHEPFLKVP
Put plainly: proximity ligation assay (Duolink), ERCC1 detected with FL297 antibody. The protocol: ERCC1 was detected using FL297 antibody.
Protein interactions were studied using the Duolink II proximity ligation assays (PLA) kit (Olink, Uppsala, Sweden). Coverslips were processed according to the manufacturer's instructions. In brief, the cells were fixed with methanol, permeabilized with triton, stained with the primary antibodies, and then incubated with the secondary oligonucleotide-linked antibodies. The oligonucleotides were hybridized, ligated, amplified, and detected using a fluorescent probe.

B1: XPA protein (xeroderma pigmentosum group A) (other)
chain: AAADGALPEAAALEQPAELPASVRASIERKRQRALMLRQARLAARPYSATAAAATGGMANVKAAPKIIDTGGGFILEEEEEEEQKIGKVVHQPGPVMEFDYVICEECGKEFMDSYLMNHFDLPTCDNCRDADDKHKLITKTEAKQEYLLKDCDLEKREPPLKFIVKKNPHHSQWGDMKLYLKLQIVKRSLEVWGSQEALEEAKEVRQENREKMKQKKFDKKVKELRRAVRSSVWKRETIVHQHEYGPEENLEDDMYRKTCTMCGHELTYEKM
notes: Endogenous protein of the human A549 cell line, inside fixed cells
In the case of B1, the binding result is listed as “binds”.
